{
  "source": "ChEMBL document CHEMBL4622988",
  "about": "“Elucidation of Mechanism for Ligand Efficacy at Leukotriene B4 Receptor 2 (BLT2)” (ACS Med Chem Lett, 2020)",
  "target": "T1, Leukotriene B4 receptor 2 (Homo sapiens) (UniProt Q9NPC1)",
  "T1 sequence (whole entry)": "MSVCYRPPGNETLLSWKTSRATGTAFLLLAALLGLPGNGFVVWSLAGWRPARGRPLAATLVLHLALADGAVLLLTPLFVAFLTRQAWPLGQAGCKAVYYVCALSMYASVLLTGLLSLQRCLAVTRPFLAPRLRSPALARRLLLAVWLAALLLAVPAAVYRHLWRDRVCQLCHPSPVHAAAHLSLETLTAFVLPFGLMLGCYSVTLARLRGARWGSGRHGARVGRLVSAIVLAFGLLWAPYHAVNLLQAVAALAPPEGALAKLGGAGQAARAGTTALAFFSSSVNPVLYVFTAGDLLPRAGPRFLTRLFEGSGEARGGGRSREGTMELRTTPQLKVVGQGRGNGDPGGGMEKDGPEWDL",
  "assay": "Agonist activity at HA-epitope tagged human BLT2 expressed in CHOK1 cells assessed as induction of chemotactic motility incubated for 2 hrs by hematoxylin and eosin staining based optical microscopic method",
  "type": "cell-based",
  "conditions": "CHO-K1",
  "note": "Calls of active or inactive are those of the source. No cut-off for these calls is given here.",
  "data": [
    {"smiles": "CCCCC(=O)N(Cc1ccc(-c2ccccc2C)cc1)c1ccccc1", "values": [
      {"measurement": "Activity", "value": "inactive"}
    ]}
  ]
}
